By UniProt entry, the sequences of proteins in these tests, tags left out.
UniProt P28482, whole entry: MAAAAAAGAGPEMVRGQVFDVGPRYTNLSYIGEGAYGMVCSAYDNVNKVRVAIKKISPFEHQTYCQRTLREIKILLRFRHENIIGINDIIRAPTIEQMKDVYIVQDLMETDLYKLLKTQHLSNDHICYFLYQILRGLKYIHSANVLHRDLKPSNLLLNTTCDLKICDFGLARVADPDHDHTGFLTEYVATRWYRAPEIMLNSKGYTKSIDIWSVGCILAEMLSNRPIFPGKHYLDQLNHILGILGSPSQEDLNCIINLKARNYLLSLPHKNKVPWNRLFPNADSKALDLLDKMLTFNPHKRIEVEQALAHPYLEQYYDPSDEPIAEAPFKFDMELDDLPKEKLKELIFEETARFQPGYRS

In ChEMBL document CHEMBL3886521, “Serine/threonine kinase inhibitors” (2016):

Target: Mitogen-activated protein kinase 1 (Homo sapiens, UniProt P28482)

## Cc1nn(C)cc1Nc1nccc(-c2ccn([C@H](CO)c3ccc(Cl)c(F)c3)c(=O)c2)n1
  IC50: 3.1 nM
